{"source": "patent US20230091848A1", "about": "“DISEASE DETECTION AND TREATMENT BASED ON PHENYLACETYL GLUTAMINE LEVELS” (The Cleveland Clinic Foundation, priority 2020, published 2023)", "tested_on": "washed human platelets", "experiment": "cAMP assay in washed human platelets", "assay_type": "cell-based", "experimental": "Real-time (RT) PCR in MEG01 cells: Total RNA was isolated from MEG01 cells following TRIZOL RNA isolation protocol post 40 h of siRNA transfection. […] Real time (RT) PCR was carried out following TaqMan Gene Expression Assays protocol using RT primers and probes of ADRA2A (assay Id Hs01099503_s1), ADRA2B (assay Id Hs00265081 s1) and ADRB2 (assay Id Hs00240532_s1) from ThermoFisher Scientific. cAMP assay in MEG01, Platelets and HEK293 cells: Intracellular cAMP levels were measured using CatchPoint Cyclic-AMP Fluorescent Assay Kit from molecular devices (Cat. R8089). […] For the quantification of cAMP, the lysed sample (40 μL), buffer control and cAMP calibrators were added in appropriate wells of a 96-well clear bottom, black wall cAMP assay plates (provided in the kit). […] The plate was covered with aluminum foil and left at room temperature for at least 10 min before reading fluorescence intensity in a FlexStation 3 Multi-Mode Microplate Reader-Molecular devices. […] Intracellular Ca^2+ measurement: Intracellular Ca^2+ in MEG01, HEL92.1.7, parental HEK293, β2-HEK293 (stable) cells, empty vector (EV) transfected HEK293 cells, ADRA2A transfected HEK293 cells and in α2B-HEK293 stable cells was measured using FLIPR Calcium 5 Assay Kit-Molecular devices (Cat. R8186). […]", "data": [{"compound": "CC(C)NCC(O)COc1cccc2ccccc12", "note": "(centres unmarked) [propranolol]", "values": [{"measurement": "PAGln induced intracellular cAMP production after ADR inhibitors", "value": "inhibited PAGln (5 min exposure) induced intracellular cAMP production"}, {"measurement": "intracellular cAMP production after ISO treatment, with ADR inhibitors", "value": "reduced"}]}]}
